Test results from patent US20260384424A1, “HETEROCYCLIC COMPOUND” (published 2026).

Amino acid sequences for entries named in this document (tags omitted).
UniProt O75116, whole entry: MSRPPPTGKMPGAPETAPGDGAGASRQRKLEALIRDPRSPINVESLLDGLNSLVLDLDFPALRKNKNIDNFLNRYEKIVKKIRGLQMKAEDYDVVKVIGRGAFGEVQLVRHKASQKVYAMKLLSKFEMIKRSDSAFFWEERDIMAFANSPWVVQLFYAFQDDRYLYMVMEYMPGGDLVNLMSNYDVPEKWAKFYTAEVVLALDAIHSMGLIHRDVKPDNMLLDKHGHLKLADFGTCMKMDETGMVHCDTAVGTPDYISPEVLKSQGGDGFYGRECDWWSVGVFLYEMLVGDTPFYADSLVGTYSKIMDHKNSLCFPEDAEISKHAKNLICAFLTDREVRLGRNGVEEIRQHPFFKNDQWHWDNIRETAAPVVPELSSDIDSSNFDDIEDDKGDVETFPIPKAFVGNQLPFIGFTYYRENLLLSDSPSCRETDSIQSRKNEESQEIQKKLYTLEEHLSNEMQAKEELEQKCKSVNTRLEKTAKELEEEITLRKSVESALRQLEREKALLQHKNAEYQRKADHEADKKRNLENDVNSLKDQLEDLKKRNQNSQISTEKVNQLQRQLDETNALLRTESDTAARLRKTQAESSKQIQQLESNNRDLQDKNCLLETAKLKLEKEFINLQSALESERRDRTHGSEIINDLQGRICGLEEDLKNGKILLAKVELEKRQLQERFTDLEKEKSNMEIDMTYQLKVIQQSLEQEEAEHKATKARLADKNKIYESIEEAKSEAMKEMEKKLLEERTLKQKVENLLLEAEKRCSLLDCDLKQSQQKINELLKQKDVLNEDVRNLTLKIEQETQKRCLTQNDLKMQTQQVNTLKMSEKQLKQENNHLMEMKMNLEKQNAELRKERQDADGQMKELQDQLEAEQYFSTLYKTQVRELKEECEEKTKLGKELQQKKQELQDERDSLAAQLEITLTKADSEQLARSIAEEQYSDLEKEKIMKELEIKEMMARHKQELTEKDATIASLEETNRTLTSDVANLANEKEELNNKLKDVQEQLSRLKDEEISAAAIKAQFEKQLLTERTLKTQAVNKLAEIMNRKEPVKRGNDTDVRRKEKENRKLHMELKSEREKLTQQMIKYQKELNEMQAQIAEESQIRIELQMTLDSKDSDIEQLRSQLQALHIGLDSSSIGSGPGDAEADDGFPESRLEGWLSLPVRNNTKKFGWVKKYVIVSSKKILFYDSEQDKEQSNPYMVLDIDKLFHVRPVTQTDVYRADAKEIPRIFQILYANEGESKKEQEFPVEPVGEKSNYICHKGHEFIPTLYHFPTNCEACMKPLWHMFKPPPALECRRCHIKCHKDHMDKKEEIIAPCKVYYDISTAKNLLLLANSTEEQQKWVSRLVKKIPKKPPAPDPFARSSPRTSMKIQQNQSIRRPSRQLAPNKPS

Molecular target: ROCK2 protein (Homo sapiens, UniProt O75116)
Assay: Degradation inducing activity of ROCK2 protein in HUVEC cells, Western Blotting
Settings: at 1 μm, 24 hours
Protocol: In vitro degradation inducing activity of ROCK2 protein of compounds of Examples was evaluated by Western Blotting (WB).
By a test compound, 10 mM DMSO solution was prepared, which was used as a 10 μM test compound solution. Further, the solution was diluted 10-fold with DMSO to prepare a 1 mM solution, which was used as a 1 μM test compound solution.
HUVEC cells (ATCC: CRL-1730, Lot: 70041472) were cultured in F-12K medium supplemented with 10% FBS, 0.1 mg/mL heparin, 30 mg/mL Endothelial Cell Growth Supplement (ECGS, Corning), and 1% Penicillin/Streptomycin. The HUVEC cells seeded in a 24 well plate at 50,000 cells/well/i mL were cultured for 24 hours, and then 1 μL of DMSO or a test compound solution was added thereto and treatment was performed for 24 hours. Cells were harvested and lysed for 20 minutes on ice using lysis buffer (Cell Signaling Technology, Cat #9803) supplemented with protease inhibitor cocktail (Sigma, Cat #P8340; Roche, Cat #P11873580001), and phosphatase inhibitor cocktail (Sigma, Cat #P5726, P0044). The lysate was sonicated (15 seconds, amplitude 30%, 1 cycle) and then centrifuged at 12500 rpm for 15 minutes at 4 °C. The protein concentration was determined by BCA assay kit (Thermo Fisher Scientific, Cat #23225).
The western blotting was performed using Simple Western JESS (protein simple). A cell lysis sample (protein amount; about 1.06 μg) was loaded on a plate of Simple Western JESS, and the expression level of ROCK2 protein was detected using a 12-230 kDa Wes Separation Module (Protein simple, Cat #SM-W004), an Anti-Rabbit Detection Module for Wes (Protein simple, Cat #DM-001), and a Total Protein Detection Module for Wes (Protein simple, Cat #DM-TP01). As the primary antibody, a material obtained by diluting ROCK2 (D1B1) Rabbit mAb (Cell Signaling Technology, Cat #9029) at 1:10 was used, and as the secondary antibody, a material obtained by diluting HRP-labeled anti-rabbit IgG antibody (Cell Signaling Technology, Cat #7074S) at 1:100 was used. The expression level of the target protein was standardized using the total protein amount loaded as a reference. The standardized expression level data of the control (DMSO) was taken as 100%, and the degradation rate (%) was calculated from the average standardized expression level data of the test compound. All analysis steps, such as data detection and analysis, are fully automated.
With respect to the ROCK2 protein degradation rate of the test compound, the protein degradation rates (%) at the evaluation concentrations were set to A≥75%, 75%>B≥50%, 50%>C≥25%, and D<25%, and are shown in Table 7.

SMILES	ROCK2 protein degradation rate
COC[C@H]1CN[C@H](C)CN1CC(=O)N1CC(C)(C)c2nc(CN(C)CCOCCOCCOCCOCCOCCOCCOCCN[C@H](Cc3cccc(F)c3)C(=O)Nc3ccc(-c4ccncc4)cc3)c(Cc3ccc(F)cc3)cc21	B (75%>B≥50%)
COC[C@H]1CN[C@H](C)CN1CC(=O)N1CC(C)(C)c2nc(CN(C)CCOCCOCCOCCOCCNC[C@@H](C(=O)Nc3ccc4cnccc4c3)c3ccccc3)c(Cc3ccc(F)cc3)cc21	C (50%>C≥25%)
COC[C@H]1CN[C@H](C)CN1CC(=O)N1CC(C)(C)c2ncc(Cc3ccccc3OCCOCCOCCOCCOCCOCCN[C@H](C)c3ccc(C(=O)Nc4ccncc4)cc3)cc21	A (A≥75%)
COC[C@H]1CN[C@H](C)CN1CC(=O)N1CC(C)(C)c2nc(CN(C)CCOCCOCCOCCOCCOCCOCCN[C@H](Cc3cccc(F)c3)C(=O)Nc3ccc(-c4ccncc4)cc3)c(Cc3ccc(F)cc3)cc21	D (D<25%)
COC[C@H]1CN[C@H](C)CN1CC(=O)N1CC(C)(C)c2ncc(Cc3cccc(OCCOCCOCCOCCNC[C@@H](C(=O)Nc4ccc5cnccc5c4)c4ccccc4)c3)cc21	A/A (A≥75%)
COC[C@H]1CN[C@H](C)CN1CC(=O)N1CC(C)(C)c2nc(CN(C)CCOCCN[C@H](Cc3cccc(F)c3)C(=O)Nc3ccc(-c4ccncc4)cc3)c(Cc3ccc(F)cc3)cc21	B (75%>B≥50%)
C[C@@H]1CN(CC(=O)N2CC(C)(C)c3ncc(Cc4ccc(F)cc4)cc32)[C@@H](CN(C)CCOCCOCCOCCOCCOCCN[C@H](C)c2ccc(C(=O)Nc3ccncc3)cc2)CN1	C (50%>C≥25%)
COC[C@H]1CN[C@H](C)CN1CC(=O)N1CC(C)(C)c2ncc(Cc3cccc(OCCOCCOCCOCCOCCOCCOCCOCCNC[C@@H](C(=O)Nc4ccc5cnccc5c4)c4ccccc4)c3)cc21	D (D<25%)
COC[C@H]1CN[C@H](C)CN1CC(=O)N1CC(C)(C)c2nc(CN(C)CCOCCOCCNC[C@@H](C(=O)Nc3ccc4cnccc4c3)c3ccccc3)c(Cc3ccc(F)cc3)cc21	D (D<25%)
COC[C@H]1CN[C@H](C)CN1CC(=O)N1CC(C)(C)c2nc(CN(C)CCOCCOCCOCCOCCOCCOCCOCCN[C@H](C)c3ccc(C(=O)Nc4ccncc4)cc3)c(Cc3ccc(F)cc3)cc21	B (75%>B≥50%)
C[C@@H]1CN(CC(=O)N2CC(C)(C)c3ncc(Cc4ccc(F)cc4)cc32)[C@@H](CN(C)CCOCCOCCOCCN[C@H](Cc2cccc(F)c2)C(=O)Nc2ccc(-c3ccncc3)cc2)CN1	C (50%>C≥25%)

Same assay, conditions: at 10 μm, 24 hours

SMILES	ROCK2 protein degradation rate
COC[C@H]1CN[C@H](C)CN1CC(=O)N1CC(C)(C)c2nc(CN(C)CCOCCOCCOCCOCCOCCOCCOCCN[C@H](Cc3cccc(F)c3)C(=O)Nc3ccc(-c4ccncc4)cc3)c(Cc3ccc(F)cc3)cc21	A (A≥75%)
COC[C@H]1CN[C@H](C)CN1CC(=O)N1CC(C)(C)c2nc(CN(C)CCOCCOCCOCCOCCNC[C@@H](C(=O)Nc3ccc4cnccc4c3)c3ccccc3)c(Cc3ccc(F)cc3)cc21	A (A≥75%)
COC[C@H]1CN[C@H](C)CN1CC(=O)N1CC(C)(C)c2ncc(Cc3ccccc3OCCOCCOCCOCCOCCOCCN[C@H](C)c3ccc(C(=O)Nc4ccncc4)cc3)cc21	B (75%>B≥50%)
COC[C@H]1CN[C@H](C)CN1CC(=O)N1CC(C)(C)c2nc(CN(C)CCOCCOCCOCCOCCOCCOCCN[C@H](Cc3cccc(F)c3)C(=O)Nc3ccc(-c4ccncc4)cc3)c(Cc3ccc(F)cc3)cc21	A (A≥75%)
COC[C@H]1CN[C@H](C)CN1CC(=O)N1CC(C)(C)c2ncc(Cc3cccc(OCCOCCOCCOCCNC[C@@H](C(=O)Nc4ccc5cnccc5c4)c4ccccc4)c3)cc21	A/A (A≥75%)
COC[C@H]1CN[C@H](C)CN1CC(=O)N1CC(C)(C)c2nc(CN(C)CCOCCN[C@H](Cc3cccc(F)c3)C(=O)Nc3ccc(-c4ccncc4)cc3)c(Cc3ccc(F)cc3)cc21	A (A≥75%)
C[C@@H]1CN(CC(=O)N2CC(C)(C)c3ncc(Cc4ccc(F)cc4)cc32)[C@@H](CN(C)CCOCCOCCOCCOCCOCCN[C@H](C)c2ccc(C(=O)Nc3ccncc3)cc2)CN1	D (D<25%)
COC[C@H]1CN[C@H](C)CN1CC(=O)N1CC(C)(C)c2ncc(Cc3cccc(OCCOCCOCCOCCOCCOCCOCCOCCNC[C@@H](C(=O)Nc4ccc5cnccc5c4)c4ccccc4)c3)cc21	B (75%>B≥50%)
COC[C@H]1CN[C@H](C)CN1CC(=O)N1CC(C)(C)c2nc(CN(C)CCOCCOCCNC[C@@H](C(=O)Nc3ccc4cnccc4c3)c3ccccc3)c(Cc3ccc(F)cc3)cc21	A (A≥75%)
COC[C@H]1CN[C@H](C)CN1CC(=O)N1CC(C)(C)c2nc(CN(C)CCOCCOCCOCCOCCOCCOCCOCCN[C@H](C)c3ccc(C(=O)Nc4ccncc4)cc3)c(Cc3ccc(F)cc3)cc21	D (D<25%)
C[C@@H]1CN(CC(=O)N2CC(C)(C)c3ncc(Cc4ccc(F)cc4)cc32)[C@@H](CN(C)CCOCCOCCOCCN[C@H](Cc2cccc(F)c2)C(=O)Nc2ccc(-c3ccncc3)cc2)CN1	A (A≥75%)
